# Membrane permeability of cyclic peptides

Data: CycPeptMPDB; original report Kelly et al. 2021, doi:10.1021/jacs.0c06115.

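Lipid, pH, incubation time, direction and concentration are not recorded in the data file. The list need not hold all peptides of the study. Peptides that the database sets to -10, its floor, are left out.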

PAMPA is the parallel artificial membrane permeability assay, which has no cells and reads passive diffusion.
P is given in units of 10^-6 cm/s (from log10 values with two decimals); larger means faster passage.

structure (SMILES)	PAMPA (10^-6 cm/s)
CC(=O)N[C@@H]1C(=O)N2CCC[C@H]2C(=O)N(C)[C@H](CC(C)C)C(=O)N[C@H](CC(C)C)C(=O)N[C@@H](CC(C)C)C(=O)N(C)[C@@H](CC(C)C)C(=O)N(C)[C@@H](C)C(=O)N[C@@H](CC(C)C)C(=O)N2CCC[C@@H]2C(=O)O[C@@H]1C	0.29
CC(=O)N1CCC[C@H]1C(=O)N(C)[C@H](CC(C)C)C(=O)N[C@@H]1C(=O)N(C)[C@H](CC(C)C)C(=O)N(C)[C@@H](CC(C)C)C(=O)N(C)[C@@H](CC(C)C)C(=O)N[C@@H](C)C(=O)N[C@H](CC(C)C)C(=O)N2CCC[C@H]2C(=O)O[C@@H]1C	6
CC(=O)N[C@@H]1C(=O)N2CCC[C@H]2C(=O)N(C)[C@H](CC(C)C)C(=O)N[C@@H](CC(C)C)C(=O)N[C@@H](CC(C)C)C(=O)N[C@H](CC(C)C)C(=O)N[C@@H](C)C(=O)N[C@@H](CC(C)C)C(=O)N2CCC[C@@H]2C(=O)O[C@@H]1C	0.072
CC(=O)N1CCC[C@H]1C(=O)N(C)[C@H](CC(C)C)C(=O)N[C@@H]1C(=O)N[C@@H](CC(C)C)C(=O)N[C@H](CC(C)C)C(=O)N(C)[C@@H](CC(C)C)C(=O)N[C@@H](C)C(=O)N[C@@H](CC(C)C)C(=O)N2CCC[C@H]2C(=O)O[C@@H]1C	0.35
CC(=O)N1CCC[C@@H]1C(=O)N(C)[C@@H](CC(C)C)C(=O)N[C@@H]1C(=O)N[C@H](CC(C)C)C(=O)N(C)[C@@H](CC(C)C)C(=O)N(C)[C@@H](CC(C)C)C(=O)N(C)[C@@H](C)C(=O)N[C@@H](CC(C)C)C(=O)N2CCC[C@@H]2C(=O)O[C@@H]1C	1.4
CC(=O)N1CCC[C@H]1C(=O)N[C@@H]1C(=O)N(C)[C@H](CC(C)C)C(=O)N[C@H](CC(C)C)C(=O)N[C@@H](CC(C)C)C(=O)N(C)[C@@H](CC(C)C)C(=O)N(C)[C@H](C)C(=O)N[C@@H](CC(C)C)C(=O)N2CCC[C@@H]2C(=O)O[C@@H]1C	1.7
CC(=O)N1CCC[C@@H]1C(=O)N(C)[C@H](CC(C)C)C(=O)N[C@@H]1C(=O)N(C)[C@H](CC(C)C)C(=O)N(C)[C@@H](CC(C)C)C(=O)N(C)[C@H](CC(C)C)C(=O)N(C)[C@@H](C)C(=O)N[C@H](CC(C)C)C(=O)N2CCC[C@@H]2C(=O)O[C@@H]1C	7.8
CC(=O)N[C@@H]1C(=O)N2CCC[C@H]2C(=O)N(C)[C@H](CC(C)C)C(=O)N[C@H](CC(C)C)C(=O)N[C@H](CC(C)C)C(=O)N[C@@H](CC(C)C)C(=O)N(C)[C@H](C)C(=O)N[C@@H](CC(C)C)C(=O)N2CCC[C@@H]2C(=O)O[C@@H]1C	0.16
CC(=O)N[C@@H]1C(=O)N2CCC[C@H]2C(=O)N(C)[C@H](CC(C)C)C(=O)N(C)[C@H](CC(C)C)C(=O)N(C)[C@H](CC(C)C)C(=O)N(C)[C@H](CC(C)C)C(=O)N(C)[C@@H](C)C(=O)N[C@@H](CC(C)C)C(=O)N2CCC[C@@H]2C(=O)O[C@@H]1C	4
CC(=O)N[C@@H]1C(=O)N2CCC[C@H]2C(=O)N(C)[C@H](CC(C)C)C(=O)N[C@@H](CC(C)C)C(=O)N[C@H](CC(C)C)C(=O)N[C@H](CC(C)C)C(=O)N(C)[C@H](C)C(=O)N[C@@H](CC(C)C)C(=O)N2CCC[C@@H]2C(=O)O[C@@H]1C	0.083
CC(=O)N1CCC[C@H]1C(=O)N[C@@H]1C(=O)N[C@H](CC(C)C)C(=O)N(C)[C@H](CC(C)C)C(=O)N[C@@H](CC(C)C)C(=O)N(C)[C@@H](CC(C)C)C(=O)N(C)[C@H](C)C(=O)N[C@@H](CC(C)C)C(=O)N2CCC[C@@H]2C(=O)O[C@@H]1C	11
CC(=O)N1CCC[C@H]1C(=O)N(C)[C@@H](CC(C)C)C(=O)N[C@@H]1C(=O)N(C)[C@@H](CC(C)C)C(=O)N[C@@H](CC(C)C)C(=O)N(C)[C@@H](CC(C)C)C(=O)N(C)[C@@H](C)C(=O)N[C@@H](CC(C)C)C(=O)N2CCC[C@H]2C(=O)O[C@@H]1C	3.8
CC(=O)N1CCC[C@@H]1C(=O)N(C)[C@@H](CC(C)C)C(=O)N[C@@H]1C(=O)N(C)[C@H](CC(C)C)C(=O)N(C)[C@@H](CC(C)C)C(=O)N(C)[C@@H](CC(C)C)C(=O)N(C)[C@H](C)C(=O)N[C@@H](CC(C)C)C(=O)N2CCC[C@H]2C(=O)O[C@@H]1C	4.8
CC(=O)N1CCC[C@H]1C(=O)N(C)[C@H](CC(C)C)C(=O)N[C@@H]1C(=O)N[C@H](CC(C)C)C(=O)N[C@H](CC(C)C)C(=O)N[C@@H](CC(C)C)C(=O)N[C@@H](C)C(=O)N[C@@H](CC(C)C)C(=O)N2CCC[C@@H]2C(=O)O[C@@H]1C	3

Repeated from above, the 2 entries with the highest PAMPA:

structure (SMILES)	PAMPA (10^-6 cm/s)
CC(=O)N1CCC[C@H]1C(=O)N[C@@H]1C(=O)N[C@H](CC(C)C)C(=O)N(C)[C@H](CC(C)C)C(=O)N[C@@H](CC(C)C)C(=O)N(C)[C@@H](CC(C)C)C(=O)N(C)[C@H](C)C(=O)N[C@@H](CC(C)C)C(=O)N2CCC[C@@H]2C(=O)O[C@@H]1C	11
CC(=O)N1CCC[C@@H]1C(=O)N(C)[C@H](CC(C)C)C(=O)N[C@@H]1C(=O)N(C)[C@H](CC(C)C)C(=O)N(C)[C@@H](CC(C)C)C(=O)N(C)[C@H](CC(C)C)C(=O)N(C)[C@@H](C)C(=O)N[C@H](CC(C)C)C(=O)N2CCC[C@@H]2C(=O)O[C@@H]1C	7.8